## Cyclic peptide permeability, from CycPeptMPDB

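Lipid, pH, incubation time, direction and concentration are not recorded in the data file. Other peptides of the study may be missing here. Entries at the database's floor value (log10 P of -10) are not listed.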

PAMPA measures passive passage through an artificial lipid membrane. Permeability is given as log10 of P in cm/s; higher (less negative) is more permeable.

PAMPA (log10 cm/s) | structure (SMILES)
-6.90 | CCCCCN1CC(=O)N(C)[C@@H](CC(C)C)C(=O)N[C@@H](CCCC)C(=O)N2CCC[C@@H]2C(=O)N(Cc2ccccc2Cn2cccn2)CC(=O)N[C@@H](Cc2ccccc2)C1=O
-5.39 | CCCC[C@@H]1NC(=O)[C@H](CC(C)C)N(C)C(=O)CN(CC2CCOCC2)C(=O)[C@H](C)NC(=O)CN(Cc2ccc(Cl)cc2)C(=O)[C@H]2CCCN2C1=O
-5.40 | CCCC[C@@H]1NC(=O)[C@H](CC(C)C)N(C)C(=O)CN(Cc2ccccc2)C(=O)[C@H](CC(C)C)NC(=O)CN(CCN2CCOCC2)C(=O)[C@H]2CCCN2C1=O
-5.30 | CCCC[C@@H]1NC(=O)[C@H](CC(C)C)N(C)C(=O)CN(CC2CCOCC2)C(=O)[C@H](C)NC(=O)CN(CCCCc2ccccc2)C(=O)[C@H]2CCCN2C1=O
-7.97 | CCCC[C@@H]1NC(=O)[C@H](CC(C)C)N(C)C(=O)CN(CCCc2ccccc2)C(=O)[C@H](CC(C)C)NC(=O)CN(Cc2ccc(Cl)cc2)C(=O)[C@H]2CCCN2C1=O
-6.99 | CCCCCN1CC(=O)N(C)[C@@H](CC(C)C)C(=O)N[C@@H](CCCC)C(=O)N2CCC[C@@H]2C(=O)N(Cc2cc(CC(C)C)on2)CC(=O)N[C@@H](Cc2ccccc2)C1=O
-9.46 | CCCC[C@@H]1NC(=O)[C@H](CC(C)C)N(C)C(=O)CN(Cc2ccccc2)C(=O)[C@H](Cc2ccc3ccccc3c2)NC(=O)CN(Cc2ccc(Cl)cc2)C(=O)[C@H]2CCCN2C1=O
-5.34 | CCCC[C@@H]1NC(=O)[C@H](CC(C)C)N(C)C(=O)CN(CCOC)C(=O)[C@H](Cc2ccc3ccccc3c2)NC(=O)CN(CCC)C(=O)[C@H]2CCCN2C1=O
-5.86 | CCCC[C@@H]1NC(=O)[C@H](CC(C)C)N(C)C(=O)CN(CCCN2CCCC2=O)C(=O)[C@H](Cc2ccccc2)NC(=O)CN(Cc2ccc3c(c2)OCO3)C(=O)[C@H]2CCCN2C1=O
-5.40 | CCCC[C@@H]1NC(=O)[C@H](CC(C)C)N(C)C(=O)CN(CCOC)C(=O)[C@H](Cc2ccccc2)NC(=O)CN(CC)C(=O)[C@H]2CCCN2C1=O
-5.83 | CCCC[C@@H]1NC(=O)[C@H](CC(C)C)N(C)C(=O)CN(CC2CCOCC2)C(=O)[C@H](Cc2ccccc2)NC(=O)CN(CCCCc2ccccc2)C(=O)[C@H]2CCCN2C1=O
-6.47 | CCCC[C@@H]1NC(=O)[C@H](CC(C)C)N(C)C(=O)CN(CCCN2CCCC2=O)C(=O)[C@H](Cc2ccc3ccccc3c2)NC(=O)CN(CCN2CCOCC2)C(=O)[C@H]2CCCN2C1=O
-5.54 | CCCCCN1CC(=O)N(C)[C@@H](CC(C)C)C(=O)N[C@@H](CCCC)C(=O)N2CCC[C@@H]2C(=O)N(CC(C)C)CC(=O)N[C@@H](CC(C)C)C1=O
-8.56 | CCCC[C@@H]1NC(=O)[C@H](CC(C)C)N(C)C(=O)CN(CCOc2ccccc2)C(=O)[C@H](Cc2ccccc2)NC(=O)CN(CCCCc2ccccc2)C(=O)[C@H]2CCCN2C1=O
-7.50 | CCCC[C@@H]1NC(=O)[C@H](CC(C)C)N(C)C(=O)CN(CC2CCCCC2)C(=O)[C@H](CC(C)C)NC(=O)CN(Cc2ccc3c(c2)OCO3)C(=O)[C@H]2CCCN2C1=O
-5.27 | CCCCCN1CC(=O)N(C)[C@@H](CC(C)C)C(=O)N[C@@H](CCCC)C(=O)N2CCC[C@@H]2C(=O)N(CCN2CCOCC2)CC(=O)N[C@@H](CC(C)C)C1=O
-7.35 | CCCC[C@@H]1NC(=O)[C@H](CC(C)C)N(C)C(=O)CN(CC2CCCCC2)C(=O)[C@H](Cc2ccccc2)NC(=O)CN(Cc2cc(CC(C)C)on2)C(=O)[C@H]2CCCN2C1=O

Excerpt, the final 2 entries:

{"smiles": "CCCCCN1CC(=O)N(C)[C@@H](CC(C)C)C(=O)N[C@@H](CCCC)C(=O)N2CCC[C@@H]2C(=O)N(CCN2CCOCC2)CC(=O)N[C@@H](CC(C)C)C1=O", "PAMPA (log10 cm/s)": "-5.27"}
{"smiles": "CCCC[C@@H]1NC(=O)[C@H](CC(C)C)N(C)C(=O)CN(CC2CCCCC2)C(=O)[C@H](Cc2ccccc2)NC(=O)CN(Cc2cc(CC(C)C)on2)C(=O)[C@H]2CCCN2C1=O", "PAMPA (log10 cm/s)": "-7.35"}

Source: CycPeptMPDB (Li et al. 2023), which took these values from Furukawa et al. 2016, doi:10.1021/acs.jmedchem.6b01246.